The conditions of data set [1]: cited from earlier work.
Data set [2] is described as follows: pK calculated from monosubstituted compounds assuming additivity of substituent effects. The settings on record: pK (calc.)−pK (obs.).
Data set [3] is described as follows: pKA calculated from pKP of the corresponding phenol by linear relation eq (8).

Read-outs that look alike come from different tables or passages of the source.

For `O=[N+]([O-])c1cccc([N+](=O)[O-])c1O`, the pK in data set [1] (observed value) is 3.713.
For `O=[N+]([O-])c1ccc([N+](=O)[O-])c(O)c1`, the “ΔpK(1) Dinitrophenol” value in data set [2] is “.40”.
Take 2,5-xylidene: the pK in data set [1] was 4.57. For the same compound, the “discrepancy between observed and predicted pK, eq (8)” value in data set [3] was 0.95.
Regarding `O=[N+]([O-])c1cccc(O)c1[N+](=O)[O-]`, the “ΔpK(1) Dinitrophenol” value in data set [2] is 0.65.
For `O=[N+]([O-])c1ccc(O)cc1[N+](=O)[O-]`, the “ΔpK(1) Dinitrophenol” value in data set [2] is on record as “.13”.

Values taken from publication PMC5323086, “Ionization Constants of the Six Dichloroanilines and the Six Dichlorophenols in Aqueous Solution at 25 °C” (Journal of Research of the National Bureau of Standards. …, 1964).
